Experimental data published in patent publication US20050054559A1, “Compounds for sustained release of orally delivered drugs” (priority 2000, published 2005).

Amino acid sequences for entries named in this document (tags omitted).
UniProt Q14973, whole entry: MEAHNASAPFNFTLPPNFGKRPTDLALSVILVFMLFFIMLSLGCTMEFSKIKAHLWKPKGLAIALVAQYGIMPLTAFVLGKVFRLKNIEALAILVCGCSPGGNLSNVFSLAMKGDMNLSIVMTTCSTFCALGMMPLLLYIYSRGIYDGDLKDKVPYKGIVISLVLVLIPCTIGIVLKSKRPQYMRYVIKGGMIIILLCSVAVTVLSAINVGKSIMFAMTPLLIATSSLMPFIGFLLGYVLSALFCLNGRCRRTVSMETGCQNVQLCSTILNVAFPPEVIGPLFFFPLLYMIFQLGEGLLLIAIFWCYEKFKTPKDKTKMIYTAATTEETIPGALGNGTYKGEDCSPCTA
UniProt Q12908, whole entry: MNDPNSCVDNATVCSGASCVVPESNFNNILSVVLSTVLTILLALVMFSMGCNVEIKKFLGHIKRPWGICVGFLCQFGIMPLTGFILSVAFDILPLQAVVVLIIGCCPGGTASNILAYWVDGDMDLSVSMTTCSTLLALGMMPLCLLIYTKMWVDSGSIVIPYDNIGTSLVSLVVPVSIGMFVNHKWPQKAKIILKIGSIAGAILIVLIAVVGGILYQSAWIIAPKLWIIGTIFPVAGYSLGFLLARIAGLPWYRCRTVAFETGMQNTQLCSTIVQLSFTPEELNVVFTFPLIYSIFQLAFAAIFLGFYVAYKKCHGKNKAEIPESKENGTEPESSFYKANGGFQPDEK

Tests used:
Assay type in all cases: cell-based
LBAT [1] = target: T1, LBAT (Homo sapiens, UniProt Q14973); experiment: Inhibition of radiolabeled taurocholate uptake in LBAT-transfected CHO cells; conditions: radiolabeled competition assay in transporter-expressing CHO cells
IBAT [2] = target: T2, IBAT (Homo sapiens, UniProt Q12908); experiment: Electrogenic transport in Xenopus oocytes expressing IBAT; conditions: for % Max. (GDC): relative to glycodeoxycholate
IBAT [3] = target: T2, IBAT; experiment: Inhibition of radiolabeled taurocholate uptake in IBAT-transfected CHO cells; conditions: radiolabeled competition assay in transporter-expressing CHO cells
LBAT [4] = target: T1, LBAT; experiment: Electrogenic transport in Xenopus oocytes expressing LBAT

SMILES | IC50 (LBAT [1]) | EC50 (IBAT [2]) | % Max. (GDC) (IBAT [2]) | IC50 (IBAT [3]) | EC50 (LBAT [4]) | % Max. (GDC) (LBAT [4]; relative to glycodeoxycholate)
COC(=O)CC1(CNC(=O)OCCCCCC(=O)O[C@@H]2CC[C@@]3(C)[C@@H](C2)C[C@@H](O)[C@@H]2[C@@H]3C[C@H](O)[C@]3(C)[C@@H]([C@H](C)CCC(=O)NCC(=O)O)CC[C@@H]23)CCCCC1 | 1700 nM | 58 µM | 28% | 7 µM | – | –
COC(=O)CC1(CNC(=O)O[C@@H]2CC[C@@]3(C)[C@@H](C2)C[C@@H](O)[C@@H]2[C@@H]3C[C@H](O)[C@]3(C)[C@@H]([C@H](C)CCC(=O)O)CC[C@@H]23)CCCCC1 | 700 nM | > 100 µM | 0% | > 100 µM | 31 µM | 140%
